Measurements from PubChem BioAssay AID504700 (The Scripps Research Institute Molecular Screening Center, 2011).
Only a part is listed here, and it is no random draw. Activity calls are given as the source filed them.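 How the source made its calls: active means activation above a cutoff set at the mean over all compounds plus 3 SD (cut at about 18% in these data); inactive means the rest.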

Chains of the proteins cited; added tags and fusions are not shown.
UniProt P31323, whole entry, looked up: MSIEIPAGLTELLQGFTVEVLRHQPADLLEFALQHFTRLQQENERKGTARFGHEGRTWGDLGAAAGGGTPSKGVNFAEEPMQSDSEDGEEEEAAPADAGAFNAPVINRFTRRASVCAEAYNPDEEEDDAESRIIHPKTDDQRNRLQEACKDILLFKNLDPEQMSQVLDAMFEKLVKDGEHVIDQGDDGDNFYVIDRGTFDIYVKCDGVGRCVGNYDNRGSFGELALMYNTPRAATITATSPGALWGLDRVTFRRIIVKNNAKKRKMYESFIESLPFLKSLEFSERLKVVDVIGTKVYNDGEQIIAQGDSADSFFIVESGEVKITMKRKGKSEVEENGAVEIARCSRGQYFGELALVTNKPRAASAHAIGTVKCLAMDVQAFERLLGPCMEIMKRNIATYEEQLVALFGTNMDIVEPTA

target: cAMP-dependent protein kinase catalytic subunit beta (Homo sapiens) + cAMP-dependent protein kinase type II-beta regulatory subunit (Homo sapiens) (UniProt P22694+P31323); test: compounds dissociating PKAc from R2B subunit – biochemical, fluorescence polarization, Cy5-IP20, human, primary screen (AID 504700); conditions: PKA-R2B holoenzyme dissociation, at 11.4 µM, active compounds read high, 0% DMSO only, 100% 113 µM cGMP, R2B truncated from residue 108, S112A mutant;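 further: higher means more holoenzyme dissociation and a rise in polarization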

Structure (SMILES) | activation
CN(C(=O)Cc1ccccc1)[C@@H]1CC[C@]2(CCCO2)C[C@H]1N1CCCC1 | inactive: 0.9%
CCOP1(=S)c2c(C)nn(CCC#N)c2N=C(c2ccc(F)cc2)N1C (centres undefined) | inactive: -7.1%
CN(C)C(=O)c1cc([N+](=O)[O-])cc2c1-c1c(cc([N+](=O)[O-])cc1[N+](=O)[O-])C2=O | inactive: -2.12%
O=[N+]([O-])c1ccc2c(c1)nnn2O | inactive: -3.91%
CN(C(=O)Cc1ccc(Cl)c(Cl)c1)[C@H]1CC[C@@]2(CCCO2)C[C@@H]1N1CCCC1 | inactive: 5.05%
O=C(OC1CN2CCC1CC2)c1ccc(Cl)cc1 (centres undefined) | inactive: 2.87%
COc1cc(C(=O)NCC2(N3CCOCC3)CCCCC2)cc(Cl)c1OC(C)C | inactive: -13.7%
O=[As](O)(O)c1cccnc1 | inactive: -2.24%
CS(=O)(=O)c1ccc(Cl)c(NC(=O)COC(=O)C(O)(c2ccccc2)c2ccccc2)c1 | inactive: 2.33%
O=[As](O)(c1cccc(O)c1)c1cccc(O)c1 | inactive: -2.56%
Cc1cccc(OCC(=O)OC2CN3CCC2CC3)c1 (centres undefined) | inactive: -3.69%
Cc1ccc(NCCc2c([N+](=O)[O-])cc([N+](=O)[O-])cc2[N+](=O)[O-])cc1 | inactive: -3.55%
Nc1cccc2c([As](=O)(O)O)cccc12 | inactive: -0.49%
CCCOP(=S)(Nc1nc(N)cc(=O)[nH]1)OCCC | inactive: -2.47%
COc1cc(C2NCCC3(OCCO3)C2(C)C)cc(OC)c1OC (centres undefined) | inactive: -13.1%
CCOP(=O)(Nc1cccc2ccccc12)OCC | inactive: 6.2%
O=P1(Nc2ccccn2)COc2ccccc2OC1 | inactive: -7.74%
CCC1=CC2Cc3nc4ccc(Cl)cc4c(N)c3C(C1)C2 (centres undefined) | inactive: -2.8%
CCOP(=O)(NC(=NC(C)c1ccccc1)NC(C)c1ccccc1)OCC (centres undefined) | inactive: 9.06%
CCOP(=O)(Nc1ccc(C)cn1)OCC | inactive: 2.28%

Structure (SMILES) | activation
O=P1(N(CCCl)CCCl)NCCC(C(F)(F)F)O1 (centres undefined) | inactive: 2.94%
Clc1n[nH]nc1-c1nn[nH][15n]1 | inactive: -2.75%
CC(C)(C)C(=O)NC(Sc1ncccn1)C(Cl)(Cl)Cl (centres undefined) | inactive: 0.52%
COc1ccccc1CNC(=O)COC(=O)C(O)(c1ccccc1)c1ccccc1 | inactive: -5.19%
CC(C)/C=N\N=C(\N)N[N+](=O)[O-] | inactive: -2.82%
CN(C(=O)Cc1ccc(Cl)c(Cl)c1)[C@@H]1CCCC[C@H]1N1CCCC1 | inactive: 3.25%
CC1(CBr)Cn2c(nc3ccccc3c2=O)S1 (centres undefined) | inactive: -4.01%
Cc1nn(-c2ccccc2)c2c1P(=O)(N1CCOCC1)N(C)C(c1ccccc1)=N2 (centres undefined) | inactive: -1.81%
CC1CCC(C(C)C)C(OP(=O)(Nc2ccccn2)c2ccccc2)C1 (centres undefined) | inactive: -2.28%
Cc1ccc(C(=O)OC2CN3CCC2CC3)cc1 (centres undefined) | inactive: -6.1%
CN(C)C1(CNC(=O)c2ccc(S(C)(=O)=O)cc2)CCCCC1 | inactive: -5.4%
O=C(/C=C/c1ccccc1)OC1CN2CCC1CC2 (centres undefined) | inactive: -12%
CCCC1OP(=O)(Nc2ccccc2)OCC1CC (centres undefined) | inactive: -5.91%
O=P1(Nc2ncccn2)COc2ccccc2OC1 | inactive: -5.87%
Nc1cccc([As](=O)(O)c2ccccc2)c1 | inactive: -16.3%
O=P1(Nc2ccc(Br)cn2)COc2ccccc2OC1 | inactive: -2.49%
NS(=O)(=O)c1cccc(NC(=O)COC(=O)C(O)(c2ccccc2)c2ccccc2)c1 | inactive: -1.24%
Cc1ccc(OCC(=O)OC2CN3CCC2CC3)cc1 (centres undefined) | inactive: 0.02%
O=[As](O)(c1cccs1)c1cccs1 | inactive: -2.12%
